Source: US20260103665A1, “Synovium-on-a-Chip” (New York University, priority 2022, published 2026)
“Also recorded” adds a separate entry of the source.

Tested on: CD14+ monocytes
Assay: monocyte phenotype profiling, CD16 expression
Type: cell-based, human
Conditions: IFN-β primed CD14+ monocytes versus without IFN-β priming
Source text: Following the established inflammation in the RA chip, work pivoted to whether the RA inflammation can be maintained on-chip for a long period. The RA chip cultured for over 4 days and quantified inflammatory cytokines secretion with IL-6 and GM-CSF as indicator. […] It was previously shown that pre-treatment circulating type I IFN (T1IFN) activity predicts non-response to TNFi (Wampler-Muskardin et al., Front Immunol, 2020). Remarkably, no patient with a ratio >1.3 achieved remission or low disease activity. It is also possible to use single cell gene expression analysis to study blood monocytes in RA patients with high vs. low IFN-β-to-α activity ratio. […] Further on, the behaviors of monocytes in the RA chip are investigated by infusing monocytes into the central sinus of the chip, from which monocytes can distribute into the microvessel network and extravasate out of vessel. […] In addition, the effect of circulating T1IFNs on monocyte activation in the RA chip was studied.
To confirm the role of TNF-α in regulating the RA inflammation, monitored first is monocyte dynamics in the RA device which is primed with or without TNF-α. […] Previously, the biology of non-classical and classical monocytes was examined from RA patients defined by their pre-biologic treatment T1IFN activity.

B1: IFN-β: type I interferon used to prime monocytes (protein, UniProt P01574 22-187, looked up)
Interferon beta: MSYNLLGFLQRSSNFQCQKLLWQLNGRLEYCLKDRMNFDIPEEIKQLQQFQKEDAALTIYEMLQNIFAIFRQDSSSTGWNETIVENLLANVYHQINHLKTVLEEKLEKEDFTRGKLMSSLHLKRYYGRILHYLKAKEYSHCAWTIVRVEILRNFYFINRLTGYLRN
CD16 expression on monocytes: may suppress CD16 expression; also recorded: lower expression of CD16
